Values quoted from earlier work, collected in US20170360029A1, “Chemical Agent For Controlling Soil Nematode Which Comprises Macrolide-Type Compound” (Maruwa Biochemical Co., Ltd., priority 2012, published 2017).

Conditions: cited from earlier work

emamectin benzoate
solubility to water: 24 µg/mL
